Assay results reported in patent publication US20160346335A1, “Honey-based dressing for the treatment of wounds and burns” (priority 2013, published 2016).

System: partial thickness burns
Set-up: species or system children
Conditions: in vivo
Source text: It is presented in this example the result of an open, prospective, comparative, controlled trial with random distribution of cases, conducted at the Department of Pediatric Surgery in the Public General Hospital “San Juan de Dios”, of the Government of Guatemala, in the period from August 1985 to January 1986. This clinical research refers to an interventional study, to treat patients in a single center, in order to examine treatment variation and patient outcomes, including the effect of new management strategies, implementation of practice guidelines, and quality improvement initiatives. […] Assessment of burn size: by use the Lund and Browder chart for % Total Body Surface Area. The depth of a burn injury should be reassessed two to three days after the initial assessment, by the same clinician. Primary outcomes: time to complete wound healing and proportion of participants with completely healed wounds. Secondary outcomes: Incidence of adverse events; Hospital length of stay; Change in wound size or deeper conversion; Incidence of infection; and Cost. The burn team accomplishes all wound management. Initial treatment of the burn wound involves cleansing the wound and removes dirt and debris without damaging the burn wound. Ruptured blisters are removed with scissors. After wound cleansing, cover with a dressing or cream according to the previously established random selection. […]

## sulfadiazine Argentic cream [SS]
  Deepening to more complex lesion, % of cases: 77%
